From US7754689B2, “Finger-1 peptide analogs of the TGF-β superfamily” (Wyeth LLC, priority 2006, dated 2010)

Assays:
Type in all cases: binding
BMP-3 = molecular target: T1, BMP-3 (Homo sapiens, UniProt P12645); assay: Affinity column chromatography, capture and elution of BMP-3
T1 construct: a propeptide fragment copurifies along with the mature protein; made in house; host or cells: CHO cells (conditioned medium)
T1 sequence (P12645 363-472): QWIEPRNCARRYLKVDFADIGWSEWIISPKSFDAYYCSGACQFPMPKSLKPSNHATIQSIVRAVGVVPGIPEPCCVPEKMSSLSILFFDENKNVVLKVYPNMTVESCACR
Description: (§1) BMP-12 was immobilized on NHS-activated Sepharose™ beads at a ratio of about 20 mg:4 mL and the resulting media combined with water or neutral saline buffer to prepare a column. CHO-conditioned media augmented with 1.2 M NaCl was loaded onto the column. In some cases, the media was preconcentrated with respect to BMP before loading. The column was washed with 15 CV (column volumes) of 1.2 M NaCl in 40 mM Na2HPO4 at pH 7.2, followed by 0.5 M arginine/0.5 M NaCl in 20 mM Tris at pH 7.5 (15 CV) and a low salt wash (50 mM ammonium acetate at pH 7, 15 CV). […] Finally, the column was eluted with 5CV of the acetic acid solution with 6M guanidine hydrochloride (GuHCl).
The eluate was analyzed using HPLC.
BMP-2 was immobilized on sepharose beads as in Example 1 and used to test the loading and elution of BMP-3. […] As for the BMP-12 column, a propeptide fragment copurifies along with the mature protein, and trace amounts of the mature BMP-3 were also observed in the guanidine peak.
A mutant of the BMP-2 finger 1 peptide ([…]) (SEQ ID NO: 1) was linked to sepharose beads via a C-terminal lysine at a ratio of 5 mg peptide/mL resin. 4 mL of the resulting resin (1.6×2.0 cm) was used to prepare a column. The column was loaded with BMP-3 and eluted as in Example 1. […] In general, chromatography with the immobilized peptides provided higher purity product than with the whole protein. […]

BMP-12 = molecular target: T2, BMP-12 (Homo sapiens, UniProt Q7Z4P5); assay: Affinity column chromatography, capture and elution of BMP-12
T2 sequence (Q7Z4P5 322-450): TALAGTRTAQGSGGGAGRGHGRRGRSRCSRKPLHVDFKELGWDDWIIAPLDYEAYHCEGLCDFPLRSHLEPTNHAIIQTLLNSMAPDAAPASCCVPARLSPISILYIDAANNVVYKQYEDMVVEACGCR
Description: as §1
BMP-12 was loaded and eluted from a BMP-12 affinity column as in Example 1. […] Both the monomeric and dimeric forms of BMP-12 were captured.
BMP-12 was loaded and eluted from a BMP2 affinity column as in Examples 1 and 2.
BMP-12 was purified using a column prepared with the BMP-2 mutant peptide described in Example 6. […] A small amount of BMP-12 eluted with 6M GuHCl.
BMP-12 was purified using a column prepared with the BMP-12 wild type peptide described in Example 7. […] A small amount of BMP-12 eluted with 6M GuHCl.

BMP-3 and BMP-12 = assay: HPLC columns of BMP affinity resins loaded with BMP-3 and BMP-12; settings: columns loaded with BMP-3 and BMP-12
Description: The BMP affinity resins using BMP-12 and BMP-2 were prepared as described in Examples 1 and 2 and used to prepare HPLC columns. These columns were used loaded with BMP-3 and BMP-12. […] In some cases, size exclusion or reverse phase chromatography techniques were employed to enhance purification.

[1] = washes, then gradient to 50 mM acetic acid pH 3, then 6M GuHCl

BMP-2: Bone Morphogenic Protein, member of the TGF-β superfamily; immobilized on sepharose beads as affinity ligand
capture of BMP-3 by column with immobilized ligand (BMP-3; CHO-conditioned media with 1.2 M NaCl (high salt) load): effectively captured | elution of BMP-3 from column with immobilized ligand (BMP-3; [1]): eluted with acetic acid | capture of BMP-12 by column with immobilized ligand (BMP-12; high salt / high ionic strength load): effectively captured | elution of BMP-12 from column with immobilized ligand (BMP-12; [1]): eluted with acetic acid and guanidine | effectiveness as affinity ligand for reverse phase HPLC (BMP-3 and BMP-12): equally effective
